Measured values published in patent US10967167B2, “Using alternating electric fields to increase permeability of the blood brain barrier” (priority 2018, dated 2021).

Tested on: artificial BBB (cerebEND murine brain capillary endothelial cells)
Conditions: 100 kHz alternating electric fields for 72 hours; 4 kDa molecular weight

## fluoresceine isothiocyanate coupled to dextran [FITC-dextrans]
  permeability of the artificial BBB to FITC-dextrans: 110 % of the control
